# Results reported in patent US7629348B2, “Heterocyclic amide and imine derivatives, processes for their preparation, compositions comprising them and their use as pesticides” (Merial Limited, priority 2001, dated 2009).
# How the values were obtained:
# [1] = tested on: black bean aphids (Aphis fabae); test: Dip test: field bean plants (Vicia faba) and aphids dipped into solution of preparation, aphid mortality; settings: plants and aphids dipped 5 seconds; after 3 and 6 days of storage; concentration 500 ppm or less
# [2] = tested on: black bean aphids (Aphis fabae); test: Root-systemic test: solution pipetted into bottle with field bean (Vicia faba), aphid mortality; settings: 4 ml aqueous solution pipetted into bottle; after 3 and 6 days of storage; concentration 500 ppm or less
substance,measurement,setting,value
N-butyl-N-isopropylthio-(4-trifluoromethyl)nicotinamide [Example C],mortality of the preparation on the aphids,[1],active
same,root-systemic effect of the preparation as aphid mortality,[2],active
